± gives the standard deviation of the averaged measurements.
Tested on: HepaRG
Experiment: LDH release cytotoxicity, % of total lysis control; higher = more cytotoxic
Settings: 48 h
Method in brief: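 Duplicate wells of single-lot HepaRG cells, grown on collagen I-coated 96-well plates, received eight-point half-log series of test chemicals with 100 µM as the top concentration. Exposure lasted 48 h in serum-free induction medium with 0.5% DMSO, while total lysis wells received 0.1% Triton X. Resorufin fluorescence (CytoTox-ONE, Tecan Safire) was used to quantify LDH leaked into 50 µL of spent medium. Values for percent cytotoxicity were normalized to on-plate vehicle and total lysis controls and averaged across the duplicates.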

CCOc1nc(C(Cl)(Cl)Cl)ns1 [Etridiazole]
Settings | LDH release cytotoxicity [%]
0.03162 µM | -0.0871 ± 1.1
0.1 µM | -2.12 ± 0.13
0.3162278 µM | -1.92 ± 0.4
1 µM | -1.68 ± 0.78
3.16228 µM | -1.93 ± 0.19
10 µM | -1.17 ± 0.19
31.6228 µM | -0.917 ± 0.87
100 µM | 0.377 ± 0.5
